COc1ccc2[nH]c(SCc3ccc(C)cc3)nc2c1 [ABC-1, 5-methoxy-2-[(4-methylbenzyl)sulfanyl]-1H-benzimidazole]
reduction of biofilm formation on coated surface (P. aeruginosa CF-145): at least 50%
reduction of biofilm formation on coated surface (V. cholerae): at least 50%
